Earlier results on one substance are cited in US6342219B1, “Antibody compositions for selectively inhibiting VEGF” (Board of Regents, The University of Texas System, priority 1999, dated 2002).

The chains behind the UniProt entries cited, without tags or fusion partners. Residues count along the entry.
UniProt P35968, 20-1356: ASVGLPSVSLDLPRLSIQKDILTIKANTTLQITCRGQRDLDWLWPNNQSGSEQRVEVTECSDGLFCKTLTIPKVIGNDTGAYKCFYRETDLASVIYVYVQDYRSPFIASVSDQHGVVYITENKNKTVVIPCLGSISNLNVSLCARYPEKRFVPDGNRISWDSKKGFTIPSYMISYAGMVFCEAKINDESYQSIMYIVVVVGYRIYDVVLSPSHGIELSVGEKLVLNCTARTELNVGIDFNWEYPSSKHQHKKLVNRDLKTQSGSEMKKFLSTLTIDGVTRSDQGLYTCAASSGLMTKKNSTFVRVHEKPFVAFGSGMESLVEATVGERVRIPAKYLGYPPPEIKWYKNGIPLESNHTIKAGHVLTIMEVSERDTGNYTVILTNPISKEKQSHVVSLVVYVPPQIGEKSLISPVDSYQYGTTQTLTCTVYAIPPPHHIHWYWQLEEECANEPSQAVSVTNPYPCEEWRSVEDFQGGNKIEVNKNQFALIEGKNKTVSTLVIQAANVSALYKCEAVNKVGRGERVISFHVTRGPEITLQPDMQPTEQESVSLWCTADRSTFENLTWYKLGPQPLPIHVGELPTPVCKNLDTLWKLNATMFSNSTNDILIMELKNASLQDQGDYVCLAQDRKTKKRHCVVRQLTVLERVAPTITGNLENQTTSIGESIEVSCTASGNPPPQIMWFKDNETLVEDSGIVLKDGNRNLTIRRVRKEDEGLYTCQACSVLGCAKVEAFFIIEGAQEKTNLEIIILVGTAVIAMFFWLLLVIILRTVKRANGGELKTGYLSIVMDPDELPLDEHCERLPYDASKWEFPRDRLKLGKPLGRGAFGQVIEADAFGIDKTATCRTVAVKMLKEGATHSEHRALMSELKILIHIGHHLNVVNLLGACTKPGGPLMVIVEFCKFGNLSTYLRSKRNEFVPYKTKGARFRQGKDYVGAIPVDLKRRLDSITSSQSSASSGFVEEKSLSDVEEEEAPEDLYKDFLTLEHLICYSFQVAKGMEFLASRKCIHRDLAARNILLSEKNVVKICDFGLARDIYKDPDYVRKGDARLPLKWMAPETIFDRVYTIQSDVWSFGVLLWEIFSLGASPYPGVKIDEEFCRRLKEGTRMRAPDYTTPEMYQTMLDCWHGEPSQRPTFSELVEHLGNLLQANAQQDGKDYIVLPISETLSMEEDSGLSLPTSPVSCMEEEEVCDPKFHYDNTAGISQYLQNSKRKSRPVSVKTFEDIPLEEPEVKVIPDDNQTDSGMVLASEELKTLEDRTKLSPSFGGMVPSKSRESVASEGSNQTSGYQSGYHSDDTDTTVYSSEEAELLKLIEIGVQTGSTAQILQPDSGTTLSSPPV

By Kd is commonly meant the equilibrium constant for the complex coming apart.

The data set has as its target VEGFR2 (Homo sapiens, UniProt P35968). The following applies: read-out: Kd of VEGF binding to VEGFR2; cited from earlier work.

In the case of VEGF, the dissociation constant (Kd) was 0.4 to 0.8 nM.
